For this assay, the target named is T1, NYESO1 (peptide NYESO1-001) peptide on HLA-A*02:01 (human).
T1 peptide: SLLMWITQV
The assay is described as follows: multimer staining.

B1: R59P2E7 (TCR, V domains shown)
Valpha: KQEVTQIPAALSVPEGENLVLNCSFTDSAIYNLQWFRQDPGKGLTSLLLIQSSQREQTSGRLNASLDKSSGRSTLYIAASQPGDSATYLCAVNSDYKLSFGAGTTVTVRA
Vbeta: AAGVIQSPRHLIKEKRETATLKCYPIPRHDTVYWYQQGPGQDPQFLISFYEKMQSDKGSIPDRFSAQQFSDYHSELNMSSLELGDSALYFCASSLGLGTGDYGYTFGSGTRLTVV
Consider B1, for which the binding result is on record as “no recognition”.

B2: R37P1H1 (TCR, V domains shown)
Valpha: AQTVTQSQPEMSVQEAETVTLSCTYDTSESNYYLFWYKQPPSRQMILVIRQEAYKQQNATENRFSVNFQKAAKSFSLKISDSQLGDTAMYFCAFGYSGGGADGLTFGKGTHLIIQP
Vbeta: DAGVTQSPTHLIKTRGQQVTLRCSPKSGHDTVSWYQQALGQGPQFIFQYYEEEERQRGNFPDRFSGHQFPNYSSELNVNALLLGDSALYLCASSNEGQGWEAEAFFGQGTRLTVV
As for B2, the binding result was “no recognition”.

Values taken from patent publication US20190321478A1 (published 2019).
